In this assay the target is T1, Polyunsaturated fatty acid 5-lipoxygenase (Rattus norvegicus, UniProt P12527).
T1 sequence (P12527 whole entry): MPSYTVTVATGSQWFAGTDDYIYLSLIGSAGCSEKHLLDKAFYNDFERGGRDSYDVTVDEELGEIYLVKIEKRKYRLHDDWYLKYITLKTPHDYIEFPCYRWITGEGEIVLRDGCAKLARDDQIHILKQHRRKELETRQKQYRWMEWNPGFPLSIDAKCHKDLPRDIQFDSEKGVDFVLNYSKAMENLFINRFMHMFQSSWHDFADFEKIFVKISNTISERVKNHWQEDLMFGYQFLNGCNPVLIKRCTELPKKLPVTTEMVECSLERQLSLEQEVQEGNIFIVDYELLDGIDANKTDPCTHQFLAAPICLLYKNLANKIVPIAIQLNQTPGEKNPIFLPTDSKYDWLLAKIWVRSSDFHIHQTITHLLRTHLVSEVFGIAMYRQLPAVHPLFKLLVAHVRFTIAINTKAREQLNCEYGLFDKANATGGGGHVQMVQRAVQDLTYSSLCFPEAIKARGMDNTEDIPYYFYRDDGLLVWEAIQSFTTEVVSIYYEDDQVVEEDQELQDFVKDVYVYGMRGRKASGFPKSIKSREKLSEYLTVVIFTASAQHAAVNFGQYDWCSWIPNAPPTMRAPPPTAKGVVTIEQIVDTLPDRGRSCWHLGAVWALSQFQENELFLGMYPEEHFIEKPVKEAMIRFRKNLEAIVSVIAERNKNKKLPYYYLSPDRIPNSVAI
Briefly: Inhibition of 5-lipoxygenase on rat basophil leukemia cell line lysate (RBL-1 2H3 subline) by measuring 5-HETE production. The assay is classed as functional, cell-based.
Usually IC50 stands for the midpoint of a concentration-inhibition curve. `CC(C(=O)N(C)O)c1cc2ccccc2s1` (centres undefined) registered an IC50 of 680 nM. In other words, the sub-micromolar range.

Molecule `CC(C#Cc1cccc(Oc2ccccc2)c1)N(O)C(N)=O` (centres undefined) displayed an IC50 of 150 nM. This IC50 is about 4.5-fold lower than that of the molecule before.

Molecule `NC(=O)N(O)Cc1ccc(Oc2ccccc2)s1` gave an IC50 of 570 nM. This IC50 lies about 3.8-fold higher than the previous one.

Turning to `Cc1ccc(/C=C/CN(O)C(N)=O)o1`, the IC50 was found to be 2000 nM.

(Values after ChEMBL document CHEMBL1130069, “Structure-activity relationships of N-hydroxyurea 5-lipoxygenase inhibitors” (J Med Chem, 1997).)
